# In patent US20080280983A1, “METHODS OF TREATING RETT SYNDROME” (CeNeRx BioPharma, priority 2007, published 2008):
# Tests used:
# CRF-1 receptor [1] = target: T1, CRF-1 receptor (Rattus norvegicus, UniProt P35353); assay: Reversal of effects of CRH administered directly into the brain; assay type: in vivo; details: rats, sub-chronic treatment
# T1 construct: from tissue; host or cells: living rat, brain (in vivo)
# T1 sequence (P35353 24-415): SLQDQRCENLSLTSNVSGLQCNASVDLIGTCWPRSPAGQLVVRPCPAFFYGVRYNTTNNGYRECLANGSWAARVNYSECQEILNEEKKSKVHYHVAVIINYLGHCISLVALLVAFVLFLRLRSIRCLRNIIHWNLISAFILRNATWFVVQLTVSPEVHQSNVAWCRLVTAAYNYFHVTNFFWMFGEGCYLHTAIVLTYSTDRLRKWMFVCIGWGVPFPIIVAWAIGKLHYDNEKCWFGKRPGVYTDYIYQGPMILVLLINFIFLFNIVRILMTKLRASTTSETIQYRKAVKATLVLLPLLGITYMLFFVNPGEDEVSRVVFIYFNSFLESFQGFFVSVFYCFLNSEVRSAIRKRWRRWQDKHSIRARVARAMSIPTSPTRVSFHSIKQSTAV
# Excerpt: Therefore, its mechanism of action is likely not related to GABA. In attempts to elucidate the mechanism of action it was discovered that pivagabine affects the corticotrophin-releasing hormone (CRH) content of specific brain regions (hypothalamus and cerebral cortex) particularly during stress conditions (application of foot shock in rodents).
# As mentioned above, stress is known to be associated with release of CRH from the hypothalamus and activation of the HPA axis. This is paralleled by changes in the CRH content of different brain regions and alterations in the expression of messenger RNA (mRNA) for CRH. […] Pivagabine alone reduced the CRH concentration in the hypothalamus by 52%, but had no effect in the cerebral cortex.
# CRF-1 receptor [2] = target: T1, CRF-1 receptor; details: rodents; cited from earlier work
structure (smiles),measurement,setting,value
"CC(C)(C)C(=O)NCCCC(=O)O [pivagabine, 4-[(2,2-dimethyl-1-oxopropyl)amino]butanoic acid]",antagonism of intra-cerebroventricular CRH,CRF-1 receptor [1],not antagonized
same,reversal of the effects of CRH administered directly into the brain,CRF-1 receptor [2],does not reverse the effects of CRH
